Binding of CDR-mutated scFvs to a peptide of the spike HR2 region

Source: Li et al. 2023 (doi:10.1038/s41467-023-39022-2), MIT Lincoln Laboratory and A-Alpha Bio; data file from the FLAb repository.

The target is the same throughout: PDVDLGDISGINAS, from the HR2 region of SARS-CoV-2 spike.

Parent scFv Ab-14: VH joined to VL by the linker GGGGSGGGGSGGGGS. Changes lie in the heavy chain CDRs alone.
VH: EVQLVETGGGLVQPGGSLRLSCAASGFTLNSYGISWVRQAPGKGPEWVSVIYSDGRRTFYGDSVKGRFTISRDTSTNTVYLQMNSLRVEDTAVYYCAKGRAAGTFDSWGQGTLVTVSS
VL: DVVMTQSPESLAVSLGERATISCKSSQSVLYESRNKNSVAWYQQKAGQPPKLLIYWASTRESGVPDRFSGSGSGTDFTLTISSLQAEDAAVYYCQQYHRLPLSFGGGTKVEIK

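Phage display of a naive human antibody library on the peptide gave the parent. These sequences belong to a second round, designed from the earlier measurements on random variants of the parent. Their group label is 14H_GP_Gen (GP: Gaussian process model; Gen: genetic algorithm; a sequence that several methods proposed may carry one label only). AlphaSeq pools MATa yeast showing the antibodies with MATalpha yeast showing the peptide. Pairs that bind mate more often; barcode pairs of the diploids are counted by sequencing. Read counts were normalised to the haploid input and turned into Kd by a linear fit to BCL2-family pairs of known affinity, for each replicate. Each pool was mated in six replicate cultures.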

Each variant is given by its three heavy chain CDRs, as the data file delimits them; those of the parent are GFTLNSYGIS, VIYSDGRRTFYGDSVK, GRAAGTFDS. Values are log10 of the apparent Kd in nM; lower means stronger binding. The mean shown is taken over the replicates in which the pair was detected. "n.d." marks a missing value. The strain was present, yet no cells mated with the target were sequenced in that replicate, which points to weak or no binding. Of ten entries with the parent sequence, four were seen in most replicates (averages 0.34 to 2.37), three in one and three in none, so single entries are noisy.

CDR-H1	CDR-H2	CDR-H3	log10 Kd, replicates	log10 Kd (nM), mean	signal with controls
GFSLNSYGIS	VIYSDGRRTFYGDSVK	GQTAGTFDW	n.d. / n.d. / n.d. / n.d. / n.d. / n.d.	n.d.	0 of 18
GFSLNSYGIS	VIYSDGRRTAYGDDVK	GRNAGTFDS	0.32 / 0.93 / 1.22 / n.d. / 0.22 / 0.56	0.65	0 of 18
KFDLNSYGIS	VIYSDGRRTAYGDSVK	GRTAGTFDS	0.59 / 0.52 / -0.18 / 0.32 / 0.58 / 0.24	0.34	0 of 18
GFSLNEYGIS	VIYSDGRRTFYMDDVK	GRTAGTFDS	0.03 / -0.47 / -0.39 / -0.13 / -0.33 / -0.15	-0.24	0 of 18
GFDLNSYGIS	VIYSDGRRTFYIDAVK	GQAAGTFDS	2.00 / 0.75 / 0.51 / 0.62 / 3.26 / 0.41	1.26	0 of 18
GFNLNSYGIS	VIYSDGRRTFYGDSVK	GQEAGTFDT	-0.23 / -0.02 / -0.29 / 0.00 / 0.52 / 0.02	0.00	0 of 18
GFSLNSYGIS	VIYSDGRRTFYGDNVK	GRNAGTFDS	0.56 / 0.43 / 0.21 / 0.42 / 0.23 / 0.54	0.40	1 of 18 (2.27)
GFTLESYGIS	VIYSDGRRTFYADKVK	GRTAGTFDS	n.d. / n.d. / n.d. / n.d. / n.d. / n.d.	n.d.	1 of 18 (-0.08)
GFELNSYGIS	VIYSDGRRTFYHDSVK	GRMAGTFDS	n.d. / 1.59 / 0.44 / 0.89 / 0.47 / 2.53	1.18	0 of 18
GFQLNSYGIS	VIYSDGRRTFYVDSVK	GRTAGTFDS	0.99 / 0.93 / 0.93 / 0.46 / 0.46 / 0.54	0.72	0 of 18
GFSLNSYGIS	VIYADGRRTFYGDSVK	GKAAGTFDA	0.13 / -0.02 / 0.19 / -0.31 / -0.27 / -0.29	-0.10	0 of 18
GFNLNSYGIS	VIYSDGRRTFYADDVK	GREAGTFDS	-0.36 / -0.12 / -0.65 / -0.54 / -0.54 / -0.50	-0.45	0 of 18
KFDLNSYGIS	VIYSDGRRTFYQDSVK	GNAAGTFDS	n.d. / 0.32 / n.d. / n.d. / n.d. / n.d.	0.32	0 of 18
GFDLNSYGIS	VIYSDGRRTFYHDSVK	GAAAGTFDS	0.17 / 0.17 / 0.29 / 1.30 / 0.47 / 0.87	0.54	1 of 18 (3.44)
GFSLNSYGIS	VIYSDGRRTFYADDVK	GNAAGTFDN	0.08 / -0.06 / -0.04 / 0.57 / -0.02 / 0.43	0.16	1 of 18 (2.04)
GFDLNSYGIS	VIYSDGRRTFYHDRVK	GRTAGTFDS	0.77 / 0.41 / 1.34 / 0.60 / 1.40 / 0.99	0.92	0 of 18
GFTLDSYGIS	VIYADGRRTFYGDSVK	GRTAGTFDS	-0.53 / 0.30 / -0.72 / -0.70 / -0.57 / -0.59	-0.47	0 of 18
GFNLNSYGIS	VIYSDGRRTFYGDSVK	GKVAGTFDS	2.12 / 0.90 / 1.03 / 1.45 / 1.05 / 1.35	1.32	0 of 18
KFDLNSYGIS	VIYSDGRRTFYADSVK	GRQAGTFDS	0.11 / 1.22 / 0.76 / 1.49 / 0.90 / 1.62	1.02	2 of 18 (1.61)
GFDLNSYGIS	VIYSDGRRTFYGDSVK	GHAAGTFDK	n.d. / 0.11 / 0.46 / 1.30 / 1.00 / 0.43	0.66	0 of 18
GFDLNSYGIS	VIYSDGRRTFYADKVK	GKAAGTFDS	0.88 / 0.40 / 0.53 / 0.37 / 0.37 / 0.62	0.53	0 of 18
GFDLNSYGIS	VIYSDGRRTFYLDSVK	GNAAGTFDS	0.50 / 0.41 / 0.05 / 0.12 / 0.36 / 0.30	0.29	2 of 18 (1.87)
GFDLNEYGIS	VIYSDGRRTFYDDSVK	GRAAGTFDS	0.14 / -0.51 / 0.27 / -0.01 / -0.26 / -0.60	-0.16	0 of 18
GFNLNSYGIS	VIYSDGRRTFYIDSVK	GRHAGTFDS	n.d. / n.d. / n.d. / n.d. / n.d. / 1.65	1.65	0 of 18
GFELNSYGIS	VIYSDGKRTFYADSVK	GRMAGTFDS	1.27 / 1.22 / 0.36 / 0.33 / 0.80 / 1.24	0.87	0 of 18
GFNLNSYGIS	VIYSDGRRTFYGDPVK	GQTAGTFDS	2.04 / 2.34 / n.d. / 1.37 / 2.11 / n.d.	1.96	0 of 18
GFNLNSYGIS	VIYSDGRRTFYQDSVK	GQTAGTFDS	n.d. / n.d. / n.d. / n.d. / n.d. / n.d.	n.d.	0 of 18
GFTLNEYGIS	VIYSDGRRTFYGDAVK	GRTAGTFDK	-0.28 / 0.13 / 0.65 / 0.33 / 0.07 / 0.52	0.24	0 of 18
GFNLNSYGIS	VIYSDGRRTFYQDSVK	GRVAGTFDS	1.37 / n.d. / -0.01 / 0.53 / 0.90 / 1.68	0.90	0 of 18
GFTLKSYGIS	VIYADGRRTFYGDSVK	GRVAGTFDS	0.25 / 0.44 / n.d. / -0.16 / 0.07 / n.d.	0.15	0 of 18
KFSLNSYGIS	VIYSDGRRTFYSDSVK	GKTAGTFDS	n.d. / 0.11 / 0.59 / 0.75 / 0.78 / 1.72	0.79	1 of 18 (1.29)
GFNLNSYGIS	VIYSDGRRTFYSDSVK	GREAGTFDS	0.42 / 0.65 / 0.96 / -0.26 / 0.05 / 0.21	0.34	0 of 18
GFDLNSYGIS	VIYSDGRRTFYSDSVK	GKAAGTFDD	0.42 / 0.95 / 0.16 / 0.35 / 0.26 / -0.05	0.35	0 of 18
GFDLNSYGIS	VIYSDGRRTFYADQVK	GQAAGTFDS	2.38 / 1.25 / 0.47 / 0.38 / 0.11 / 2.40	1.17	0 of 18
GFNLNSYGIS	VIYSDGRRTFYKDSVK	GWTAGTFDS	0.39 / 0.13 / -0.22 / -0.09 / 0.07 / 0.64	0.15	0 of 18
GFDLNSYGIS	VIYSDGRRTFYVDSVK	GQAAGTFDV	1.85 / 0.71 / 0.70 / 0.31 / 1.60 / 1.32	1.08	0 of 18
GFDLNSYGIS	VIYSDGRRTFYGDSVK	GSAAGTFDA	-0.36 / -0.16 / -0.04 / -0.81 / -0.49 / -0.14	-0.33	0 of 18
GFDLNSYGIS	VIYSDGRRTFYGDSVK	GKTAGTFDR	0.63 / -0.14 / 0.41 / 0.40 / 0.92 / 0.55	0.46	0 of 18
HFDLNSYGIS	VIYSDGRRTFYDDSVK	GRTAGTFDS	0.47 / 0.62 / 0.06 / 0.03 / -0.26 / 0.79	0.28	1 of 18 (2.47)

2 of these entries, quoted again:

CDR-H1	CDR-H2	CDR-H3	log10 Kd, replicates	log10 Kd (nM), mean	signal with controls
KFDLNSYGIS	VIYSDGRRTAYGDSVK	GRTAGTFDS	0.59 / 0.52 / -0.18 / 0.32 / 0.58 / 0.24	0.34	0 of 18
GFNLNSYGIS	VIYSDGRRTFYQDSVK	GQTAGTFDS	n.d. / n.d. / n.d. / n.d. / n.d. / n.d.	n.d.	0 of 18

A sequence measured in both rounds can read differently, since the two assays cover different ranges. In the paper, a design with two or fewer of six values counts as a poor binder. Empty control strains, which show no peptide, gave a signal in 1% of pairings with all heavy chain designs; the median was 2.08 and 95% of these signals were weaker than 0.84. No background was subtracted. The control count says in how many pairings with the empty strains this scFv gave a signal, with their mean in brackets.